{"source": "patent US9387198B1", "about": "“Inhibitors of advanced glycation end-products (ages)formation” (priority 2015, dated 2016)", "key": {"[1]": {"tested_on": "rat hepatocytes (CC1-Cell line)", "experiment": "Fructose-derived AGE-induced intracellular ROS production (DCFH-DA technique)", "type": "cell-based", "settings": "200 μg/mL, 24 hours, ex 490/em 520 nm", "experimental": "Procedure of the Assay: Briefly, 6×10^4 cells/mL cells (normal rat hepatocytes: CC1-Cell line) were seeded on a 96-well plate and kept for 24 hours in an incubator, containing 5% CO2 at 37° C. Before treating with fructose-derived AGEs, the cells were exposed to serum free MEM (minimum essential medium) for next 24 hours. Initially the cells were incubated with 10 μM DCFH-DA non fluorescent probe, for 45 mins in the dark environment. At the end of the incubation, the cells were washed with 1×PBS twice and were incubated with varying concentrations of the fructose-derived AGE, such as 0, 50, 100, and 200 μg/mL, to investigate the AGEs effect on the production of intracellular ROS in a dose dependent manner. […]\nDetection of Fluorescence Intensity: The intensity of fluorescence was measured at an excitation 490 nm and an emission 520 nm, using Spectra Max Spectrophotometer (Applied Biosystems, CA, USA).\nEstimation of Percentage Inhibition: The inhibition of AGEs-induced intracellular production of ROS in rat hepatocytes incubated with novel anti-glycation agents, 6-nitrobenzimidazole derivatives, was measured by the following formula: Percentage Inhibition=100−[(Fluorescence of test compound−Fluorescence of blank)/(Fluorescence of control−Fluorescence of blank)×100] […]"}, "[2]": {"tested_on": "rat hepatocytes (CC1-Cell line)", "experiment": "Fructose-derived AGE-mediated diminished growth of hepatocytes (MTT assay)", "settings": "200 μg/mL, 24 hours"}}, "data": [{"substance": "HSA: human serum albumin, non-glycated protein control at 200 μg/mL", "values": [{"measurement": "Fluorescence (Average), intracellular ROS production", "setting": "[1]", "result": 92.3}, {"measurement": "Absorbance (Average), proliferation of rat hepatocytes", "setting": "[2]; MTT, 540 nm", "result": 1.11}, {"measurement": "Percentage Inhibition of proliferation of rat hepatocytes", "setting": "[2]; versus normal untreated cells", "result": 15.6, "unit": "%"}]}]}
